Earlier results as cited in patent US11236147B2, “Methods and compositions for the inhibition of TRPV4” (CHILDREN'S MEDICAL CENTER CORPORATION, priority 2013, dated 2022).

By UniProt entry, the sequences of proteins in these tests, tags left out.
UniProt Q9HBA0, whole entry: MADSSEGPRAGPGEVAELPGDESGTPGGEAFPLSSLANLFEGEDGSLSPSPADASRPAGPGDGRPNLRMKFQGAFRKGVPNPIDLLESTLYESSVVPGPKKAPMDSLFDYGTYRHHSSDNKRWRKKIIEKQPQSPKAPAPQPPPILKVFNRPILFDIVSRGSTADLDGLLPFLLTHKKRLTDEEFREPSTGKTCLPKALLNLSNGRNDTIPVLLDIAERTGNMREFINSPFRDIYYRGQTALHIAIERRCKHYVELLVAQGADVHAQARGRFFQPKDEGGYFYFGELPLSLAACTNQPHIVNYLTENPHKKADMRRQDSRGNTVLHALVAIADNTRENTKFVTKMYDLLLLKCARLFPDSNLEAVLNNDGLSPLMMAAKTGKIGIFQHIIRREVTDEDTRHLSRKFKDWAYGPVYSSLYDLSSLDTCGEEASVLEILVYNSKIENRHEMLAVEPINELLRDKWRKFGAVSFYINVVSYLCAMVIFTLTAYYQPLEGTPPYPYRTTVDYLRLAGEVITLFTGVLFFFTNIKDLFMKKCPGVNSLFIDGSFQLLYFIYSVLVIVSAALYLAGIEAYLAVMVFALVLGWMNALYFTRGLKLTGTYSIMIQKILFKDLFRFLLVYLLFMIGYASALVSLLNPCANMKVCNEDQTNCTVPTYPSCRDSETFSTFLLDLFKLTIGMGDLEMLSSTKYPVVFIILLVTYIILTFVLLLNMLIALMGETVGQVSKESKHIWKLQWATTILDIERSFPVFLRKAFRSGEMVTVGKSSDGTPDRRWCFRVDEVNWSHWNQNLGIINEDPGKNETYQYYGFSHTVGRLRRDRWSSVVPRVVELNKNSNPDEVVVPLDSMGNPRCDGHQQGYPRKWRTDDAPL

Target: T1, TRPV4 (Homo sapiens, UniProt Q9HBA0)
T1 construct: Transient increases in intracellular calcium were detected quickly after force application in HUVE cells treated with control siRNA; endogenous in cells; host or cells: HUVE cells (ATCC) treated with control or CD98 siRNA
Settings: human lung-on-a-chip, in vitro; cited from earlier work

## IL2: inducer of pulmonary edema in the lung-on-a-chip model
  clinical manifestations of pulmonary edema (vascular leakage, fibrin clot formation, compromised oxygen transport): produces clinical manifestations of pulmonary edema
